The text below walks through data of US10927111B2, “Inhibitors of RAF kinases” (Kinnate Biopharma Inc., priority 2019, dated 2021).

Amino acid sequences for entries named in this document (tags omitted).
UniProt P04049, whole entry: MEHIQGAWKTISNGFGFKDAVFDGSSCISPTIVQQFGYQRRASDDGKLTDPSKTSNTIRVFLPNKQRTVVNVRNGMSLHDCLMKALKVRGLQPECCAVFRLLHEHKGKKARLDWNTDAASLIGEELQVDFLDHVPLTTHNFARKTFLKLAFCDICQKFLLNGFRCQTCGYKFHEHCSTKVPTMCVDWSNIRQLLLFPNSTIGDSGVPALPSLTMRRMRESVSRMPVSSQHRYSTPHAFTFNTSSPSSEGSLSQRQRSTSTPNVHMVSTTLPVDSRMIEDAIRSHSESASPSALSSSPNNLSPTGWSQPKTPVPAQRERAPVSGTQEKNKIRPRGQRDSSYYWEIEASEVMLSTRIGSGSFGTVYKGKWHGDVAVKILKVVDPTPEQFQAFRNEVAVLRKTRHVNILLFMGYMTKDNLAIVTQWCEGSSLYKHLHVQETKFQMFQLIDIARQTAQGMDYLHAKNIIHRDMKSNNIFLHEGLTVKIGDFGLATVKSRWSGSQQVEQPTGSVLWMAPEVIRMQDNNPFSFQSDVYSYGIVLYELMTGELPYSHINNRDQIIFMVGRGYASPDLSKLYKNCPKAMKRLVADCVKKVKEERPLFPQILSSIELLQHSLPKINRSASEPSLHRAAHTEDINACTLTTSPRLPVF

The target in this assay is human RAF1 (Homo sapiens (Human), UniProt P04049). Briefly: Protein kinase assay (radiometric 33P-ATP, MEK1 (K97R) substrate). Particulars: read-out: RAF-1 IC50; human MEK1 (K97R) substrate 3 micromolar, ATP 10 micromolar, 10-dose IC50 mode. Here is the method:
Protein kinase assay: Assay platform was used to measure kinase/inhibitor interactions as described previously (Anastassiadis et al., 2011). In brief, for each reaction, kinase and substrate were mixed in a buffer containing 20 mM HEPES (pH 7.5), 10 mM MgCl2, 1 mM EGTA, 0.02% Brij35, 0.02 mg/mL BSA, 0.1 mM Na3VO4, 2 mM DTT, and 1% DMSO. All compounds were solubilized in DMSO. Compounds were then added to each reaction mixture via acoustic dispense using an ECHO 550 nanoliter dispenser. For human RAF1 testing, human MEK1 (K97R) was used as a substrate at a concentration of 3 micromolar, with a final ATP concentration of 10 micromolar. For human BRAF testing, human MEK1 (K97R) was used as a substrate at 1 micromolar concentration, with a final ATP concentration of 25 micromolar. Compounds were tested in 10-dose IC50 mode with a 3-fold serial dilution starting at 10 micromolar. After a 20-min incubation, ATP (Sigma-Aldrich, St. Louis, Mo. 63178) and [g33P] ATP (specific activity 10 microCi/microliter) purchased at PerkinElmer (Boston, Mass., 02118 Cat #BLU 003H250UC) were added at a final total concentration of 10 mM. […] The percent remaining kinase activity relative to a vehicle-containing (DMSO) kinase reaction was calculated for each kinase/inhibitor pair. IC50 values were calculated using Prism 5 (GraphPad).

For the compound `CNc1ncc2cc(-c3cc(NC(=O)N4CC[C@H](OC(F)(F)F)C4)c(F)cc3C)c(C)nc2n1`, the IC50 (usually the midpoint of a concentration-inhibition curve) was < 10 nM.
